Reference: paper PMC10598209 (Nature Communications, 2023)

Key:
[1] = target: T1, human RPA heterotrimer (RPA70-RPA32-RPA14) (human, UniProt P27694 1-616; P15927 1-270; P35244 1-121); assay: pull-down; MBP-RECQ4(1–400)-His and full-length RPA heterotrimer (8 μg each) with amylose resin, 30 min at 4 °C, 20 mM K2HPO4 pH 7.5, 10% glycerol, 0.5 mM EDTA, 100 mM KCl, 0.01% NP40, 2 mM BME; SDS-PAGE, Coomassie; conditions: both partners purified
T1 construct: human RPA70; human RPA32; human RPA14; also called heterotrimeric RPA; full-length RPA heterotrimer; source: expression vector a gift from Marc S. Wold; copies: + +

[2] = target: T1, human RPA heterotrimer …; assay: NMR titration; 1H-15N HSQC of 50 or 100 μM 15N-labelled protein (RECQ4 or RPA) with step-wise addition or an excess of the unlabelled partner; buffer and temperature in Supplementary Table 6; conditions: both partners purified

B1: MBP-RECQ4(1–400)-His (domain or fragment, human, UniProt O94761 1-400, looked up)
chain: MERLRDVRERLQAWERAFRRQRGRRPSQDDVEAAPEETRALYREYRTLKRTTGQAGGGLRSSESLPAAAEEAPEPRCWGPHLNRAATKSPQSTPGRSRQGSVPDYGQRLKANLKGTLQAGPALGRRPWPLGRASSKASTPKPPGTGPVPSFAEKVSDEPPQLPEPQPRPGRLQHLQASLSQRLGSLDPGWLQRCHSEVPDFLGAPKACRPDLGSEESQLLIPGESAVLGPGAGSQGPEASAFQEVSIRVGSPQPSSSGGEKRRWNEEPWESPAQVQQESSQAGPPSEGAGAVAVEEDPPGEPVQAQPPQPCSSPSNPRYHGLSPSSQARAGKAEGTAPLHIFPRLARHDRGNYVRLNMKQKHYVRGRALRSRLLRKQAWKQKWRKKGECFGGGGATVTTK
notes: human RECQ4, Sld2-like region, residues 1-400; also called Sld2-like region of RECQ4 (aa 1–400); not shown: MBP, N-terminal, kept
Question: Does B1 bind [1]?
Answer: binds

B2: RECQ4(1–400) (domain or fragment, human, UniProt O94761 1-400, looked up)
chain: B1 chain
notes: H. sapiens RECQ4 residues 1-400, cloned in pET-M11 between NcoI and BamHI; 15N-enriched for NMR; also called Sld2-like region of RECQ4; 15N-enriched RECQ4 (1–400); source: E. coli BL21(DE3), purified (IMAC, TEV cleavage, Mono S, Superdex 75); not shown: His6, N-terminal, cleaved
Question: Does B2 bind [2]?
Answer: binds
